Assays:
[1] = biological target: T1, Proteasome Macropain subunit MB1 (Homo sapiens, UniProt P28074); experiment: Inhibition of human 20S proteasome chymotryptic-like activity using Suc-LLVY-AMC as substrate expressed in human K562 cells assessed as free 7-amino-4-methylcoumarin release preincubated for 22 hrs followed by substrate addition by fluorescent spectrophotometric analysis; format: cell-based
[2] = biological target: T1, Proteasome Macropain subunit MB1; experiment: Inhibition of human 20S proteasome chymotryptic-like activity using Suc-LLVY-AMC as substrate expressed in human OCI-AML2 cells assessed as free 7-amino-4-methylcoumarin release preincubated for 22 hrs followed by substrate addition by fluorescent spectrophotometric analysis; format: cell-based
[3] = biological target: T1, Proteasome Macropain subunit MB1; experiment: Inhibition of human 20S proteasome chymotryptic-like activity using Suc-LLVY-AMC as substrate expressed in human MDAY-D2 cells assessed as free 7-amino-4-methylcoumarin release preincubated for 22 hrs followed by substrate addition by fluorescent spectrophotometric analysis; format: cell-based
[4] = biological target: T1, Proteasome Macropain subunit MB1; experiment: Inhibition of human 20S proteasome chymotryptic-like activity using Suc-LLVY-AMC as substrate expressed in human UTMC2 cells assessed as free 7-amino-4-methylcoumarin release preincubated for 22 hrs followed by substrate addition by fluorescent spectrophotometric analysis; format: cell-based
[5] = biological target: T1, Proteasome Macropain subunit MB1; experiment: Inhibition of human 20S proteasome chymotryptic-like activity using Suc-LLVY-AMC as substrate expressed in human KMH11 cells assessed as free 7-amino-4-methylcoumarin release preincubated for 22 hrs followed by substrate addition by fluorescent spectrophotometric analysis; format: cell-based
[6] = biological target: T1, Proteasome Macropain subunit MB1; experiment: Inhibition of human 20S proteasome chymotryptic-like activity using Suc-LLVY-AMC as substrate expressed in human NB4 cells assessed as free 7-amino-4-methylcoumarin release preincubated for 22 hrs followed by substrate addition by fluorescent spectrophotometric analysis; format: cell-based, NB-4
[7] = biological target: T1, Proteasome Macropain subunit MB1; experiment: Inhibition of human 20S proteasome chymotryptic-like activity using Suc-LLVY-AMC as substrate expressed in human KG1A cells assessed as free 7-amino-4-methylcoumarin release preincubated for 22 hrs followed by substrate addition by fluorescent spectrophotometric analysis; format: cell-based
[8] = biological target: T1, Proteasome Macropain subunit MB1; experiment: Inhibition of human 20S proteasome chymotryptic-like activity using Suc-LLVY-AMC as substrate expressed in human KMS18 cells assessed as free 7-amino-4-methylcoumarin release preincubated for 22 hrs followed by substrate addition by fluorescent spectrophotometric analysis; format: cell-based

The chains behind the UniProt entries cited, without tags or fusion partners. Where a name states a change or a piece, a line headed by the entry shows the natural chain unless it says otherwise.
UniProt P28074: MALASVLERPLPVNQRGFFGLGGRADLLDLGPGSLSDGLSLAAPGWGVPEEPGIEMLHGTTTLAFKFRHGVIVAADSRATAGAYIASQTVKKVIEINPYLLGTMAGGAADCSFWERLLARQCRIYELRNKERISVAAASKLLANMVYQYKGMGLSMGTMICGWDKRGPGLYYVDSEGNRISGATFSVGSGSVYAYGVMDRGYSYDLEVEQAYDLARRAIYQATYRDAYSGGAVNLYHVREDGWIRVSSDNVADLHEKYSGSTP

IC50 [1]: 600 nM
IC50 [2]: 600 nM
IC50 [3]: 600 nM
IC50 [4]: 600 nM
IC50 [5]: 600 nM
IC50 [6]: 600 nM
IC50 [7]: 600 nM
IC50 [8]: 600 nM
Structure (SMILES): Nc1ccc(O)c2ncccc12

Source: ChEMBL document CHEMBL3804753, “Substituted quinolines as noncovalent proteasome inhibitors” (Bioorg Med Chem, 2016)
